# Values quoted from earlier work in publication PMC9054915 (Cancer Chemotherapy and Pharmacology, 2022).
# The chains behind the UniProt entries cited, without tags or fusion partners.
# UniProt P08684, whole entry: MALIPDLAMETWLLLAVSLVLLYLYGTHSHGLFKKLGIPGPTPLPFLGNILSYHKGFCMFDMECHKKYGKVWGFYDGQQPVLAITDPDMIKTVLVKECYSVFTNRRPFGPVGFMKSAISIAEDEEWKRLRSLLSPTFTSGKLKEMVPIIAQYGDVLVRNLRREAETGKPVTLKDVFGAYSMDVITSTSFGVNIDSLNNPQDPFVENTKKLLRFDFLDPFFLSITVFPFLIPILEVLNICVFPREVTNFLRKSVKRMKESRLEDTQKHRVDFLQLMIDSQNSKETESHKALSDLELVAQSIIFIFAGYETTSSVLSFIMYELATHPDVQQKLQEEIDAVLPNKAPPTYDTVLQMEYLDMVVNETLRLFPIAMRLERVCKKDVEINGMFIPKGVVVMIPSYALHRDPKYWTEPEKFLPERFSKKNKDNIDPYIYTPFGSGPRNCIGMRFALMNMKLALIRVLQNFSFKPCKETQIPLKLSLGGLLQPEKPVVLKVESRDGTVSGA
# What was measured:
# [1] = target: T1, CYP3A4 (Homo sapiens, UniProt P08684); design: caused by the saturation of CYP3A4 in the gut and liver; from tissue; host or cells: gut and liver of patients (in vivo) and Simcyp virtual healthy volunteer population; details: classification of the CYP3A4 inhibitor used in the simulation; cited from earlier work
# [2] = target: T1, CYP3A4; details: geometric mean ratio (90% CI), cited from earlier work
# [3] = target: T1, CYP3A4; design: caused by the saturation of CYP3A4 in the gut and liver; from tissue; host or cells: gut and liver of patients (in vivo) and Simcyp virtual healthy volunteer population; details: classification of the CYP3A4 inducer used in the simulation; cited from earlier work
SMILES,Inhibition of CYP3A4 [1],AUC ratio Observation ([2]; ipatasertib (100 mg single dose) AUC0–∞ with/without itraconazole 200 mg QD),Cmax ratio Observation ([2]; ipatasertib (100 mg single dose) Cmax with/without itraconazole 200 mg QD),Induction of CYP3A4 [3]
"CCC(C)n1ncn(-c2ccc(N3CCN(c4ccc(OCC5COC(Cn6cncn6)(c6ccc(Cl)cc6Cl)O5)cc4)CC3)cc2)c1=O (stereo not shown) [Itraconazole, reference compound]",Strong,5.45,2.26,–
O=C1Nc2ccc(Cl)cc2[C@@](C#CC2CC2)(C(F)(F)F)O1 [Efavirenz],–,–,–,Moderate
